Experimental data taken from ChEMBL document CHEMBL1938324, “Development of a more highly selective M(1) antagonist from the continued optimization of the MLPCN Probe ML012” (Bioorg Med Chem Lett, 2012).

Tests used:
Type in all cases: cell-based
CHO [1] = experiment: Selectivity ratio of IC50 for rat muscarinic M4 receptor expressed in CHO cells co-transfected with Gqi5 to IC50 for rat muscarinic M1 receptor expressed in CHO cells
CHO [2] = experiment: Selectivity ratio of IC50 for human muscarinic M3 receptor expressed in CHO cells to IC50 for rat muscarinic M1 receptor expressed in CHO cells
CHO [3] = experiment: Selectivity ratio of IC50 for human muscarinic M2 receptor expressed in CHO cells to IC50 for rat muscarinic M1 receptor expressed in CHO cells
CHO [4] = experiment: Selectivity ratio of IC50 for human muscarinic M5 receptor expressed in CHO cells to IC50 for rat muscarinic M1 receptor expressed in CHO cells

Measured: Ratio IC50

O=C(CCNS(=O)(=O)c1cccc2nsnc12)N1CCN(c2ccncc2)CC1
45: CHO [1] | CHO [2] | CHO [3] | CHO [4]
